The assay deals with T1, AR (Homo sapiens, UniProt P10275).
T1 construct: endogenous in cells; host or cells: VCaP cells
In words: VCAP AR Degradation Assay. The class given is cell-based. The note with it: VCaP cells, 24 h. As for the experimental part: VCAP AR Degradation Assay. Test compounds were pre-dispensed into a Corning CellBind 96-well clear bottom plate (Cat #3300) using an acoustic dispenser to make a 10-point concentration series at 1:3 dilution for each compound. The final top concentration of each compound was 5 μM. DMSO at a final concentration of 0.1% was used as a control. VCaP cells cultured in DMEM with 8% fetal bovine serum (FBS) were seeded at 50K cells per well in a 200 μL volume into the compound plate and incubated at 37° C. in a C02 incubator for 24 h. The medium was carefully removed from the cells and the plate was placed on ice. […] AR levels in compound-treated wells were normalized to that of DMSO control and expressed as percent of control (PoC) (y). […]
[formula] • A=YMin (lowest AR level normalized to DMSO control in response to compound treatment, as determined by curve fit) • B=YMax (maximum AR level as determined by curve fit) • C=EC50 • D=Hill Slope • x=compound concentration • EC50=the concentration of compound when y=(YMax−YMin)/2 • DC50=the concentration of the compound when y=50% of DMSO control (50% AR degradation) • y=AR protein level normalized to DMSO control
The lowest measured AR level normalized to DMSO control in response to compound treatment, termed Y value, was used to characterize the compound-mediated AR degradation efficiency.

Amino acid sequences for entries named in this document (tags omitted). A change or cut given only in a name is not applied to a line headed by its entry.
UniProt P10275: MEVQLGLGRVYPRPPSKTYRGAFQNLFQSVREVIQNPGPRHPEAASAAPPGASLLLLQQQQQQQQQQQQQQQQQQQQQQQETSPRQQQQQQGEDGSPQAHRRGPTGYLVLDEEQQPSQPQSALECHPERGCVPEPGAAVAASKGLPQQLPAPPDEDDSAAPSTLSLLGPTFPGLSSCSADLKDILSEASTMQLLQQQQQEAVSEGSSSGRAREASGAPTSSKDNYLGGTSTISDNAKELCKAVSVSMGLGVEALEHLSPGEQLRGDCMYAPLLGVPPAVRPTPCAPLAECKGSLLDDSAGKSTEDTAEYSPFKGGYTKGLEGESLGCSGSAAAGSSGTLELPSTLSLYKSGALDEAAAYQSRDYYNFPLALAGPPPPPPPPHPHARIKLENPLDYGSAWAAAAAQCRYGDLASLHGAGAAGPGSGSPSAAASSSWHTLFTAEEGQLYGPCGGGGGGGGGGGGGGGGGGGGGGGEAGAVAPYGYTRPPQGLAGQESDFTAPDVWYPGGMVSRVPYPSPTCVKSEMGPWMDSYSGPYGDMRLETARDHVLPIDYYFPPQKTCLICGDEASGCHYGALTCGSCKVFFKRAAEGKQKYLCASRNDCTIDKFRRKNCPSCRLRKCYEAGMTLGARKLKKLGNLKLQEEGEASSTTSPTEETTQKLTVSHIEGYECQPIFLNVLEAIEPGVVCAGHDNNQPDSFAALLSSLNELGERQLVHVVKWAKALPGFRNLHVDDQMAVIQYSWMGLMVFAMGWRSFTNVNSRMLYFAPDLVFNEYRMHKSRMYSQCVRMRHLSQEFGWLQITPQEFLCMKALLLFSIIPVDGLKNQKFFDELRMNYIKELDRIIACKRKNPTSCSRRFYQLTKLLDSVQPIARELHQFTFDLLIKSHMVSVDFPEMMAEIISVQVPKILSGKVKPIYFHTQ

With “2-((2S,6R)-4-(3-((trans-4-(3-(4-Cyano-3-(trifluoromethyl)phenyl)-5,5-dimethyl-4-oxo-2-thioxoimidazolidin-1-yl)cyclohexyl)oxy)propyl)-2,6-dimethylpiperazin-1-yl)-N-(4-(2,4-dioxotetrahydropyrimidin-1(2H)-yl)phenyl)acetamide hydrochloride [Cmpd 18]”, the DC50 (AR ELISA, concentration when AR level = 50% of DMSO control) was no more than 5 nM. In addition, for the setting “lowest AR level normalized to DMSO control, class symbols”, the Ymin entry is “** (20%<Y≤30%)”.

Broadly, the DC50 is the concentration giving 50% degradation. Low values mean degradation at low concentration, high ones degradation only at high concentration.
